scFv variants of Ab-14 (heavy chain) against a SARS-CoV-2 spike peptide

Values reported by Engelhart et al. 2022, doi:10.1038/s41597-022-01779-4 (FLAb copy).

Antigen: PDVDLGDISGINAS, a 14-residue peptide of the SARS-CoV-2 spike HR2 region.

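The parent was found by panning a naive human phage display library on the peptide. Variants in AAYL49 differ from the parent at up to three CDR positions; double and triple changes were sampled at random. The scFvs were displayed on barcoded MATa yeast, the peptide on MATalpha yeast. The frequency of each diploid, read from paired DNA barcodes, reflects how well the two displayed proteins bind. The ratio of observed to expected reads was calibrated, replicate by replicate, on BCL2-family standards whose Kd was known from biolayer interferometry. Mating was done three times.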

Parent scFv Ab-14: VH joined to VL by three GGGGS repeats. Changes lie in the heavy chain CDRs alone.
VH: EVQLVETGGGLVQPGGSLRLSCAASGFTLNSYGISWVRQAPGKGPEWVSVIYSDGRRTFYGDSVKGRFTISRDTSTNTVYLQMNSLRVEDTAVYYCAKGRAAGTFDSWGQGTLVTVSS
VL: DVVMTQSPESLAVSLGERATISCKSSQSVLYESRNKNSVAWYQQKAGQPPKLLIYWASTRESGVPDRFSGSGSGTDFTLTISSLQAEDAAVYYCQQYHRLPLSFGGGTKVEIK

Substitutions are numbered in sequence along the VH above, starting at 1 (not Kabat).
This list gathers variants with a substitution at D106 (VH, numbered from residue 1).
Each Kd is an estimate from the mating assay, the geometric mean of the replicates in which the pair was seen; lower is stronger.
"nd" means that the variant was in the library but no mating with the target was seen in any replicate; the authors take this as a sign of poor binding, and no number exists.

With N30C/R100W/D106G the result was nd (0 of 3 replicates; controls 1 of 9). With V50P/D106H/S107Y the result was 67 µM (3 of 3 replicates; controls 3 of 9). The variant G33E/Y52H/D106L gave 2.9 µM (2 of 3 replicates; controls 3 of 9). The variant N30V/G55Y/D106G gave nd (0 of 3 replicates; controls 0 of 9). For Y32P/D106P/S107W, the assay gave nd (0 of 3 replicates; controls 2 of 9). The variant G26D/I34A/D106Y showed 9.4 µM (1 of 3 replicates; controls 4 of 9). For L29C/D54T/D106E, the assay gave nd (0 of 3 replicates; controls 4 of 9).

With S35I/I51V/D106N the result was nd (0 of 3 replicates; controls 2 of 9). For D106N, the assay gave 100 nM (3 of 3 replicates; controls 5 of 9). The variant V64E/A102W/D106F showed 170 µM (1 of 3 replicates; controls 1 of 9). The variant N30R/V50A/D106N gave nd (0 of 3 replicates; controls 0 of 9). With A101H/G103W/D106Y the result was 6.8 µM (1 of 3 replicates; controls 0 of 9). The variant V50D/R56E/D106T showed nd (0 of 3 replicates; controls 0 of 9). For D54N/S63D/D106K, the assay gave nd (0 of 3 replicates; controls 0 of 9).

With Y52D/F59E/D106E the result was 32 µM (2 of 3 replicates; controls 6 of 9). The variant G61K/G103P/D106S showed nd (0 of 3 replicates; controls 0 of 9). The variant Y60Q/A102L/D106W gave 7.4 µM (2 of 3 replicates; controls 2 of 9). The variant Y32S/G103Q/D106A gave 8.7 µM (1 of 3 replicates; controls 0 of 9). For V64P/K65S/D106T, the assay gave nd (0 of 3 replicates; controls 0 of 9). With T28R/Y52C/D106H the result was 88 µM (2 of 3 replicates; controls 0 of 9). For Y32M/K65A/D106C, the assay gave nd (0 of 3 replicates; controls 3 of 9).

The variant S53Y/R100E/D106S gave 18 nM (3 of 3 replicates; controls 0 of 9). The variant G33A/A101Q/D106C showed nd (0 of 3 replicates; controls 6 of 9). The variant L29V/T104C/D106T gave 15 nM (3 of 3 replicates; controls 2 of 9). For L29N/I51G/D106H, the assay gave nd (0 of 3 replicates; controls 1 of 9). The variant I51V/F105P/D106I showed 3.5 µM (3 of 3 replicates; controls 1 of 9). The variant Y32W/A102M/D106G showed 30 µM (2 of 3 replicates; controls 4 of 9). The variant D54R/K65W/D106Y showed nd (0 of 3 replicates; controls 0 of 9).

For V50W/F105Y/D106Y, the assay gave nd (0 of 3 replicates; controls 1 of 9). The variant Y52C/D62M/D106N showed 38 µM (1 of 3 replicates; controls 0 of 9). The variant S63D/T104P/D106A showed nd (0 of 3 replicates; controls 0 of 9). The variant D54R/F59W/D106L gave nd (0 of 3 replicates; controls 1 of 9). With I51Y/F59W/D106R the result was nd (0 of 3 replicates; controls 1 of 9). For R100F/F105Q/D106E, the assay gave 76 µM (1 of 3 replicates; controls 4 of 9). The variant Y32D/F105S/D106M showed nd (0 of 3 replicates; controls 1 of 9).

With G33Y/Y60Q/D106M the result was nd (0 of 3 replicates; controls 0 of 9). The variant K65L/G99D/D106V showed 6.0 nM (3 of 3 replicates; controls 2 of 9). The variant D106Y showed 5.1 nM (3 of 3 replicates; controls 2 of 9). With G26E/G99W/D106C the result was 33 nM (3 of 3 replicates; controls 3 of 9). The variant V50I/G103I/D106R showed 85 µM (2 of 3 replicates; controls 6 of 9). With G99P/F105V/D106C the result was nd (0 of 3 replicates; controls 0 of 9).

As a blank, each scFv also met three strains without target: over library AAYL49, 15% of these pairings were detected, typically at 11 µM and seldom below 680 nM. For each scFv, signals with the empty controls are counted beside the result.